Assay results published in patent US20220041538A1, “CA[…] ACID AND SALTS THEREOF” (EMERALD HEALTH PHARMACEUTICALS INC, priority 2018, published 2022).

Key:
[1] = tested on: striatum of 3NP-intoxicated mice; assay: Histological analysis of striatum in 3NP model (Nissl staining, Iba-1 immunostaining); format: in vivo; settings: oral and intraperitoneal; tested form: sodium salt
Text: Loss of neurons in the striatum (Nissl staining) and Iba1 (microglia marker) were detected by immunostaining in the coronal sections of striatum of mice treated with vehicle, 3NP+ vehicle, 3NP+ compound I (oral and intraperitoneal). Quantification of Nissl staining (A) and Iba1 (B) positive cells in the mouse striatum. Total average number of neurons and microglia is shown.
Quantification of Nissl staining (A) and Iba1 (B) positive cells in the mouse striatum. Total average number of neurons and microglia is shown.
Brains from 3NP model were fixed in 4% paraformaldehyde and 5-μm-thick sections for Nissl staining and immunohistochemical analysis of Iba-1, a marker of microglial cells. For immunohistochemistry sections were incubated overnight at 4° C. with monoclonal anti-mouse Iba-1 antibody (Millipore, Mass., USA) used at 1/50 dilution. After incubation with the corresponding primary antibody, sections were washed in 0.1 M PBS and incubated O/N at 4° C. with goat anti-mouse (Millipore, Mass., USA) secondary antibody. […] Negative control sections were obtained using the same protocol with omission of the primary antibody. All sections for each immunohistochemical procedure were processed at the same time and under the same conditions. […]

6-OHDA challenged mice = assay: 6-OHDA murine model of Parkinson's disease (pole test, cylinder rearing test); format: in vivo; settings: oral or intraperitoneal, 14 days; tested form: sodium salt
Protocol: C57BL/6 mice were unilaterally injected intracerebroventricullarly with 6-hydroxydopamine (6-OHDA) or saline (control mice) and subjected to chronic intraperitoneal treatment with cannabigerol quinone acid (1) (oral […] in sesame oil, and intraperitoneal 10 mg/Kg in Tween80/Saline ( 1/16)) or vehicle (14 days), starting 16 h after the 6-OHDA injection. SHAM group corresponds to mice subjected to the surgical manipulation without injection of 6-OHDA. Motor coordination was evaluated by rotarod performance and motor activity was evaluated using a computer-aided actimeter. A: pole test results after oral treatment, B: cylinder rearing test results after oral treatment, C: pole test results after intraperitoneal treatment, D: cylinder rearing test results after intraperitoneal treatment.
Motor coordination was evaluated by rotarod performance and motor activity was evaluated using a computer-aided actimeter. A: pole test results after oral treatment, B: cylinder rearing test results after oral treatment, C: pole test results after intraperitoneal treatment, D: cylinder rearing test results after intraperitoneal treatment.
C57BL/6 mice pretreated intracerebroventricularly were anesthetized with an intraperitoneal injection of 200 mg/Kg of 2,2,2-tribromoethanol (Sigma-Aldrich) and placed in a stereotaxic frame with a mouse adapter (David Kopf Instruments, Tujunga, Calif., USA). […]
The pole test was used to detect bradykinesia and motor and cylinder rearing test to evaluate sensory-motor deficits in PD mice. For Pole test mice were placed head-upward on the top of a vertical rough-surfaced pole (diameter 8 mm; height 55 cm) and the time until animals descended to the floor was recorded with a maximum duration of 90 s. […] For Cylinder Rearing Test (CRT) the initial forepaw (left, right, or both) preference after placing the mouse in a methacrylate transparent cylinder of 15.5 cm in diameter and 12.7 cm in height was measured. […]

`CCCCCC1=C(C(=O)O)C(=O)C(C/C=C(\C)CCC=C(C)C)=C(O)C1=O` [I, cannabigerol quinone acid] was tested, and the “reactive microgliosis (Iba-1+ cells)” value [1] was “prevented the induction of reactive microgliosis”, the “striatal neurons (Nissl staining) against 3NP toxicity” value [1] was “preservation of striatal neurons” and the “bradykinesia (pole test)” value (6-OHDA challenged mice) was “attenuated”. For the same compound, the “clinical symptoms in 6-OH-DA challenged mice” value (6-OHDA challenged mice) was “alleviates clinical symptoms” and the “motor deficit (cylinder rearing test)” value (6-OHDA challenged mice) was “attenuated”.
